Test results published in patent US6515010B1, “Carvedilol methanesulfonate” (SmithKline Beecham Corporation, priority 1999, dated 2003).

Assay: Aqueous solubility at 25° C. of carvedilol and its salt forms
Details: for solubility: purified water at 25° C.

Substance: carvedilol methanesulfonate
- Aqueous Solubility (25° C., water, time 0.5 hr): 8170 µg/mL
- Aqueous Solubility (25° C., water, time 1 hr): 8400 µg/mL
- Aqueous Solubility (25° C., water, time 4 hr): 8670 µg/mL
- Aqueous Solubility (25° C., water, time 24 hr): 8700 µg/mL
- Aqueous Solubility (25° C., water, time 70 hr): 11200 µg/mL
- solubility: > 8000 µg/mL
- solubility (listed as methanesulfonate salt of carvedilol): > 8000 µg/mL
- aqueous solubility (in words) (water, 25° C.): significantly higher aqueous solubility
